Consider two molecules from patent US20040152672A1, “Indole compounds useful for the treatment of cancer” (priority 2000, published 2004).

The assay concerns CLL cells. Put plainly: Viability of CLL cells in culture, erythrocin B exclusion assay. Format: cell-based, human. Conditions: 10 nM of the agent plus 50 μM etodolac; FIG. 4.

On to `Nc1nc(F)nc2c1ncn2[C@@H]1O[C@H](CO)[C@@H](O)[C@@H]1O` [fludarabine], for which the “synergy with 50 μM etodolac against CLL cells” value is “synergy”.

Take `Nc1nc(Cl)nc2c1ncn2[C@H]1C[C@H](O)[C@@H](CO)O1` [2-chlorodeoxyadenosine, 2-chloro-2′-deoxyadenosine]: the “synergy with 50 μM etodolac against CLL cells” value is recorded as “synergy”.
